Patent US10857112B2, “Small molecule inhibitors of RNA binding motif (RBM) proteins for the treatment of acute cellular injury” (University of Pittsburgh—Of the Commonwealth System of …, priority 2012, dated 2020)

What was measured:
rat liver microsomes = conditions: cited from earlier work
[1] = test system: primary rat cortical neurons; experiment: STS injury, neuronal viability and cytotoxicity; conditions: 250 nM STS co-administered 24 hours
[2] = test system: primary rat cortical neurons; experiment: H2O2 injury, neuronal viability 24 h (CellTiter-Blue); conditions: 40 μM H2O2 35 min, post-treatment 100 ng/mL

Row | Compound | microsomal lipid peroxidation (thio-barbituric acid reactive products) (rat liver microsomes) | cell viability, comparison of neuroprotectants [1] | neuronal death after H2O2 injury [2]
1 | O=C1c2ccccc2C(=O)c2cc(S(=O)(=O)O)ccc21 [AQ2S, anthraquinone-2-sulfonic acid] | inhibited microsomal lipid peroxidation | – | –
2 | IGF-1: Insulin like growth factor-1, well established in vitro and in vivo neuroprotectant | – | Neither minocycline nor IGF-1 reduced neuronal death | ineffective at rescuing neurons from H2O2 injury
